Results as given in ChEMBL document CHEMBL2417457, “Octahydropyrrolo[3,4-c]pyrrole negative allosteric modulators of mGlu1” (Bioorg Med Chem Lett, 2013).
Active and inactive are the calls of the source. The calls are words filed in the database; no cut-off is given here.

How the values were obtained:
[1] = target: T1, Metabotropic glutamate receptor 1 (Homo sapiens, UniProt Q13255); assay: Negative allosteric modulation of human mGlu1 receptor expressed in HEK293A TREx cells assessed as calcium flux after 45 mins; type: functional, cell-based, HEK293-A
Outline: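 HEK293A TREx cells stably expressing human mGlu1 were induced overnight with 50 ng/mL tetracycline at 37 °C. Ten-point 1:3 compound series were added for 2.3 min, then an EC20 of glutamate, then an EC80 of glutamate 1.9 min later. Ca2+ flux was read for 1.7 min. Values are the average of n ≥ 3.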

[2] = target: T1, Metabotropic glutamate receptor 1; assay: Negative allosteric modulation of human mGlu1 receptor up to 30 uM
[3] = target: T1, Metabotropic glutamate receptor 1; assay: Negative allosteric modulation of human mGlu1 receptor expressed in HEK293A TREx cells assessed as calcium flux at 30 uM after 45 mins relative to glutamate; type: functional, cell-based; conditions: HEK293-A
Outline: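 Tetracycline-induced HEK293A TREx cells expressing human mGlu1 were loaded with Fluo-4 for Ca2+ flux. Test compound was given at 30 μM. Response amplitude is expressed as a percentage of the maximal response to 100 μM glutamate, averaged over n ≥ 3.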

| Structure (SMILES) | IC50 [1] [µM] | Activity [2] | %max [3] [%] |
| --- | --- | --- | --- |
| N#Cc1cccnc1N1C[C@H]2CN(C(=O)C34CC5CC(CC(C5)C3)C4)C[C@H]2C1 | 5.59 |  |  |
| O=C(CC12CC3CC(CC(C3)C1)C2)N1C[C@@H]2CN(c3ccccn3)C[C@@H]2C1 | 1.43 |  |  |

Continued, values first:

| IC50 [1] [µM] | Activity [2] | %max [3] [%] | Structure (SMILES) |
| --- | --- | --- | --- |
| 5.16 |  |  | O=C(N1CC2CCC(C2)C1)N1C[C@@H]2CN(c3ccccn3)C[C@@H]2C1 |
|  | inactive |  | CC(C)(C)C(=O)N1C[C@@H]2CN(c3ccccn3)C[C@@H]2C1 |
| > 10 |  | 14.9 | O=C(C1CCCCCCC1)N1C[C@@H]2CN(c3ccccn3)C[C@@H]2C1 |
